Measurements reported in patent US20030170847A1, “Genes involved in isoprenoid compound production” (priority 2001, published 2003).

Test system: lycopene cyclase in Rhodococcus ATCC 47072
Conditions: for Major peak 15.3 min (443, 469, 500 nm; lycopene), share of carotenoids by HPLC / Minor peak 14.5 min (465 nm; wild type major carotenoid), share of carotenoids by HPLC / wild type major carotenoid, % of total carotenoids / inhibition of lycopene cyclase (estimated): 40 μM inhibitor; for Major peak 15.3 min (443, 469, 500 nm; lycopene), share of carotenoids by HPLC / Minor peak 14.5 min (465 nm; wild type major carotenoid), share of carotenoids by HPLC: ATCC 47072; for wild type major carotenoid, % of total carotenoids: ATCC 47072 cultured 24 hr; for inhibition of lycopene cyclase (estimated): ATCC 47072 cultured 24 hr at 30° C.; for carotenoid production: 40 μM, ATCC 47072 strain

CCN(CC)CCSc1ccc(Cl)cc1.Cl [CPTA, 2-(4-chlorophenylthio)-triethylamine hydrochloride]
Major peak 15.3 min (443, 469, 500 nm; lycopene), share of carotenoids by HPLC: 95%
Minor peak 14.5 min (465 nm; wild type major carotenoid), share of carotenoids by HPLC: 5%
wild type major carotenoid, % of total carotenoids: 5%
inhibition of lycopene cyclase (estimated): 95%
carotenoid production: significantly decreased

CCN(CC)CCOc1ccc(C)cc1.Cl [MPTA, 2-(4-methylphenoxy)-triethylamine hydrochloride]
Major peak 15.3 min (443, 469, 500 nm; lycopene), share of carotenoids by HPLC: 82%
Minor peak 14.5 min (465 nm; wild type major carotenoid), share of carotenoids by HPLC: 18%
wild type major carotenoid, % of total carotenoids: 18%
inhibition of lycopene cyclase (estimated): 82%
carotenoid production: significantly decreased
